# Experimental data taken from PubChem BioAssay AID1325 (NMMLSC, 2008).
# The chains behind the UniProt entries cited, without tags or fusion partners.
# UniProt Q9UNQ0, whole entry: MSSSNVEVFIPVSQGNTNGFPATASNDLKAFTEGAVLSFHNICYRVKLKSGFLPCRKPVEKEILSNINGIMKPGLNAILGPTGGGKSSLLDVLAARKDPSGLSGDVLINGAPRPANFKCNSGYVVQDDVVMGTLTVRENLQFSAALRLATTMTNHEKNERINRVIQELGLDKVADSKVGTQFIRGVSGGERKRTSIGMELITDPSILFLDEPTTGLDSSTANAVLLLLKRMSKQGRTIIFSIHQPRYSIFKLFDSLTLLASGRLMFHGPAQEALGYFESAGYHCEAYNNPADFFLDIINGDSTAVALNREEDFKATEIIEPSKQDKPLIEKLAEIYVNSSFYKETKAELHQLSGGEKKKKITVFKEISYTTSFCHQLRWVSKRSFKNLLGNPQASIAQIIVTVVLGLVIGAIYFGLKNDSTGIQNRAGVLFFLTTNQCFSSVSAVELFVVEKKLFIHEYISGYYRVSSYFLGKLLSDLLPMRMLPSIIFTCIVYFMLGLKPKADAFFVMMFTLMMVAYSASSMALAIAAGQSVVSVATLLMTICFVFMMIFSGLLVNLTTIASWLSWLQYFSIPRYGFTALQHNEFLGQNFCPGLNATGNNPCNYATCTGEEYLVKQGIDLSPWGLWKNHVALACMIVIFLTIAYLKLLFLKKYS
# This is a selection; strong and weak results do not stand in their true shares. Some of these compounds have results that are not shown, active ones among them. Active and inactive are the calls of the source.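 How the source made its calls: active means inhibition above 80%; inactive means the rest.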
# Target: Broad substrate specificity ATP-binding cassette transporter ABCG2 (Homo sapiens) (UniProt Q9UNQ0)
# Test: ABCG2 efflux pump inhibitors, primary screen, multiplex with ABCB1, IgMXP3 cells, flow cytometry (AID 1325);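 further: 0% = DMSO and 100% = nicardipine control wells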
# Settings: JC-1 efflux, at 6.6 µM, stronger effect = higher value
row,Compound,inhibition
1,O=C(NCC1(N2CCCCC2)CCCCC1)c1cc([N+](=O)[O-])ccc1Cl,inactive: 7.61%
2,CC(C)N1C(=O)CC2(CCN(CCOC(=O)C(O)(c3ccccc3)c3ccccc3)CC2)C1=O,inactive: -0.26%
3,CN(C)C1CCCC1OC(=O)C(O)(c1ccccc1)c1ccccc1 (centres undefined),inactive: 4.07%
4,Cc1ccccc1C(=O)NCC1(N2CCCCC2)CCCCC1,inactive: -1.52%
5,CCN1CCCC(OC(=O)C2(O)c3ccccc3C=Cc3ccccc32)C1 (centres undefined),inactive: 0.58%
6,C=CCN1CCN(CCOC(=O)C(O)(c2ccccc2)c2ccccc2)CC1,inactive: 0.64%
7,COc1cccc(C(=O)NCC2(N3CCCCC3)CCCCC2)c1,inactive: -0.8%
8,O=C(OC1CN2CCC1CC2)C(CO)(c1ccccc1)c1ccccc1 (centres undefined),inactive: 0.75%
9,CN(C)c1cccc(C(=O)NCC2(N(C)C)CCCCC2)c1,active: 80.5%
